From PubChem
TDP1 cell noCPT = qHTS for Inhibitors of human tyrosyl-DNA phosphodiesterase 1 (TDP1): qHTS in cells in absence of CPT. Potency, µM (series often up to 46.2 µM), hits mostly inhibitors. DT40 Tdp1-/- hTDP1 cells, no CPT, ATP luminescence, 48 h. 420,000 compounds, 15% hits. AID 686978, 2013; further: nearly all actives have a fitted effect of over 55% in size
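Growth of hTDP1-complemented DT40 Tdp1-knockout cells is measured by ATP luminescence after at least 48 hr compound exposure at 37 °C, with DMSO substituting for the 20 nM CPT used in the parallel screen.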
miR-21 FLuc = miR-21 reporter, rising signal | 340,000 tested, under 10 active | AID 2288 | HeLa miR-21 FLuc reporter, luciferase, 48 h | Potency, µM (titrated, usually from 38.3 µM); active = well fitted rising curve with a large enough effect; inconclusive = small, poorly fitted or top-dose-only effect; inactive = no such curve, though single readings can be large or run the other way;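 further: miR-21 action dims this reporter so a rising signal means less miR-21 action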
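HeLa miR-21-FLuc reporter line, endogenous miR-21; 2000 cells/well in DMEM/10% FBS; compound titration up to ~40uM final, 48 h, 37 degree Celsius; luciferase detection reagent, 15 min lysis, CCD luminescence.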
uPA generation = inhibitors of cell surface uPA generation; Potency, µM (series often up to 38.3 µM), hits mostly inhibitors; AID 540303; 330,000 compounds, 0.31% hits; cell surface uPA generation assay, qHTS; active means well fitted inhibition curve with a large enough effect; inconclusive means small, poorly fitted or top-dose-only effect; inactive means no such curve, though single readings can be large or run the other way; tested in mouse RAW 264.7 cells; further: nearly all actives have a fitted effect of over 55% in size
TDP1 block = blocks human tyrosyl-DNA phosphodiesterase 1. 350,000 compounds, 0.28% hits. Potency, µM (titrated, usually from 130 µM), actives largely listed as inhibitors. recombinant TDP1, AlphaScreen DNA substrate cleavage. AID 485290; further: nearly all actives have a fitted effect of over 40% in size
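Here, a 5' biotin and 3' phosphotyrosine-FITC DNA oligonucleotide reports Tdp1 activity: intact substrate bridges AlphaScreen beads, while cleavage leaves a 3' phosphate and drops signal. All incubations at room temperature.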
DT40 TDP1 CPT = DT40-hTDP1 cell growth loss with CPT; chicken DT40 Tdp1-/-;hTDP1 cells + 20 nM CPT, ATP luminescence, 48 h; Potency, µM (doses to about 46.2 µM), usual class: inhibitors; 420,000 compounds, 12% hits; further: nearly all actives have a fitted effect of over 55% in size
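Chicken DT40 Tdp1-/- cells stably complemented with human TDP1 were seeded at 400 cells/well in medium containing 20 nM camptothecin, exposed to pin-transferred compounds, and grown at 37 °C for at least 48 hr. Viability was read as ATP luminescence.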
Hits are given with their value; ! = a repeat was not active. Sampled rows, rich in hits. Any-hit rate of the full collection: about 16%. Unless noted, the call rests on the fitted dose curve; in most records, active means well fitted curve in the direction sought with a large enough effect; inconclusive means small, poorly fitted or top-dose-only effect, or another doubt; inactive means no such curve, though single readings can be large; an effect the other way counts as inactive or inconclusive.

How did CCOC(=O)COc1cc2c3c(c(=O)oc2cc1C)CCCC3 do in these assays?
TDP1 cell noCPT: inactive; miR-21 FLuc: inactive; uPA generation: inactive; TDP1 block: inactive; DT40 TDP1 CPT: inactive

What do the screens show for `CC(Sc1ccsc1[N+](=O)[O-])C(=O)NCc1ccccc1` (stereo not given)?
miR-21 FLuc: inactive; TDP1 block: inactive

Results for CN(C)c1ccc(/C=C/c2ccncc2)cc1 ?
TDP1 cell noCPT: 26µM!; miR-21 FLuc: inactive; uPA generation: inactive; TDP1 block: inactive; DT40 TDP1 CPT: inactive

Results for CCN(CC)c1ccc(/C=N/O)cc1 ?
TDP1 cell noCPT: inactive; miR-21 FLuc: inactive; uPA generation: inconclusive; TDP1 block: inactive; DT40 TDP1 CPT: inactive

How did CCN(CC)c1ccc(/C=C/c2ccncc2)cc1 do in these assays?
TDP1 cell noCPT: 0.32µM; DT40 TDP1 CPT: 0.18µM

How did CN(C)c1ccc(C=Cc2cnccn2)cc1 do in these assays?
TDP1 cell noCPT: inconclusive; uPA generation: inactive; DT40 TDP1 CPT: inactive

How did COc1cccc(CCC(=O)N2CCC(n3nccc3NC(=O)C3CCOC3)CC2)c1 (stereo not given) do in these assays?
TDP1 cell noCPT: inactive; miR-21 FLuc: inactive; uPA generation: inactive; TDP1 block: inactive; DT40 TDP1 CPT: inactive

Results for Cc1ccc2c(c1)N(C(=O)N1CCC(C(=O)NCc3cccc(Br)c3)CC1)CCO2 ?
TDP1 cell noCPT: 21µM; miR-21 FLuc: inactive; TDP1 block: inactive; DT40 TDP1 CPT: inconclusive

What do the screens show for `CCCOc1ccc(CNC(=O)C2CCN(C(=O)N3CCOc4ccccc43)CC2)cc1`?
TDP1 cell noCPT: inconclusive; miR-21 FLuc: inactive; uPA generation: inactive; DT40 TDP1 CPT: 21µM

What do the screens show for `CCC1CN(C(=O)N2CCC(C(=O)NCc3ccc(C)o3)CC2)c2cc(C)ccc2O1` (stereo not given)?
TDP1 cell noCPT: inconclusive; miR-21 FLuc: inactive; uPA generation: inactive; TDP1 block: inactive; DT40 TDP1 CPT: 16µM!

How did CCc1ccc(CNC(=O)C2CCN(C(=O)N3CC(CC)Oc4ccc(C)cc43)CC2)cc1 (stereo not given) do in these assays?
TDP1 cell noCPT: 21µM; miR-21 FLuc: inactive; TDP1 block: inactive; DT40 TDP1 CPT: 21µM

Results for CCOc1ccc(CNC(=O)C2CCN(C(=O)N3CC(C)Oc4ccccc43)CC2)cc1 (stereo not given) ?
TDP1 cell noCPT: inconclusive; miR-21 FLuc: inactive; uPA generation: inactive; DT40 TDP1 CPT: inconclusive

Results for CCC1CN(C(=O)N2CCC(C(=O)NCc3ccco3)CC2)c2cc(C)ccc2O1 (stereo not given) ?
TDP1 cell noCPT: 18µM!; miR-21 FLuc: inactive; uPA generation: inactive; TDP1 block: inactive; DT40 TDP1 CPT: inconclusive

Results for Cc1cc(=O)[nH]c(SCC(=O)Nc2ccc(F)c([N+](=O)[O-])c2)n1 ?
TDP1 cell noCPT: inactive; miR-21 FLuc: inactive; uPA generation: inactive; TDP1 block: inactive; DT40 TDP1 CPT: inactive

How did C=CCNC(=O)c1ccc(N(Cc2ccccc2)S(C)(=O)=O)cc1 do in these assays?
TDP1 cell noCPT: inactive; miR-21 FLuc: inactive; uPA generation: inactive; DT40 TDP1 CPT: inactive

How did Cc1ccc2[nH]c(=O)c3cc(C(=O)N(C)c4ccc(C)c(C)c4)sc3c2c1 do in these assays?
TDP1 cell noCPT: 10µM; miR-21 FLuc: inactive; uPA generation: inconclusive; TDP1 block: inactive; DT40 TDP1 CPT: 10µM

Results for CCN(C(=O)c1cc2c(=O)[nH]c3ccc(C)cc3c2s1)c1ccc(F)cc1 ?
TDP1 cell noCPT: inconclusive; miR-21 FLuc: inactive; uPA generation: inactive; TDP1 block: inactive; DT40 TDP1 CPT: inconclusive

How did CCN(C(=O)c1cc2c(=O)[nH]c3ccc(C)cc3c2s1)c1ccccc1F do in these assays?
TDP1 cell noCPT: inconclusive; miR-21 FLuc: inactive; uPA generation: inactive; DT40 TDP1 CPT: 13µM

What do the screens show for `CCN(C(=O)c1cc2c(=O)[nH]c3ccc(C)cc3c2s1)c1cccc(C)c1`?
TDP1 cell noCPT: 18µM; miR-21 FLuc: inactive; uPA generation: inactive; TDP1 block: inactive; DT40 TDP1 CPT: inconclusive

What do the screens show for `CCN(C(=O)c1cc2c(=O)[nH]c3ccc(C)cc3c2s1)c1ccccc1C`?
TDP1 cell noCPT: 2.9µM; miR-21 FLuc: inactive; uPA generation: inactive; DT40 TDP1 CPT: 2.6µM

Results for Cc1cc(NC(=O)c2c([N+](=O)[O-])cnn2C)no1 ?
TDP1 cell noCPT: inactive; miR-21 FLuc: inactive; TDP1 block: inactive; DT40 TDP1 CPT: inactive
